Reference: patent US20250230125A1 (The Board of Regents of The University of Texas System, priority 2022, published 2025)

By UniProt entry, the sequences of proteins in these tests, tags left out.
UniProt P28223, whole entry: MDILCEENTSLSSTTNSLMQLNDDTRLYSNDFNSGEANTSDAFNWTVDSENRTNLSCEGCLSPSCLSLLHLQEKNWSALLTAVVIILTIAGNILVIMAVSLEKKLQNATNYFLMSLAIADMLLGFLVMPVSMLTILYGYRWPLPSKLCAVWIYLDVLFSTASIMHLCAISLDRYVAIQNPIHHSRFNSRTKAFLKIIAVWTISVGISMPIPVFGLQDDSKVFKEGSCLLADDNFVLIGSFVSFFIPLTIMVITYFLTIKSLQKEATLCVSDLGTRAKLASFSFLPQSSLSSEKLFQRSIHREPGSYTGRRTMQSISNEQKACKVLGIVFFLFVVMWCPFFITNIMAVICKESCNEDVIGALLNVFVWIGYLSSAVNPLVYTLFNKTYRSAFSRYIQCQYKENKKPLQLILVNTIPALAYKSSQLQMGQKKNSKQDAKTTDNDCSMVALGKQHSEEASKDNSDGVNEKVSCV
UniProt P41595, whole entry: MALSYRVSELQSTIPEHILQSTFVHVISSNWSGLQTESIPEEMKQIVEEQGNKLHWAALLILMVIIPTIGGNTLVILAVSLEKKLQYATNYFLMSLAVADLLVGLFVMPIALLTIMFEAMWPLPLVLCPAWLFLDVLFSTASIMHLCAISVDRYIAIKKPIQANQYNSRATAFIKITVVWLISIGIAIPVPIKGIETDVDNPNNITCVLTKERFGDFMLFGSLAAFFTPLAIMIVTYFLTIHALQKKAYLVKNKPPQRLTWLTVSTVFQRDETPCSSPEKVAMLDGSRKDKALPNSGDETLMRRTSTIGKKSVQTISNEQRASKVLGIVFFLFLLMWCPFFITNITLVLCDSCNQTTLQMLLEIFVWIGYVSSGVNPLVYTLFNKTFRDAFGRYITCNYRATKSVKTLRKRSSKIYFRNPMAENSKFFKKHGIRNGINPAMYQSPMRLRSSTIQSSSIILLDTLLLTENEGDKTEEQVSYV

Key:
[1] = molecular target: h5-HT2AR (Homo sapiens, UniProt P28223); assay: 5-HT-evoked Cai2+ release in h5-HT2AR-CHO cells; conditions: compound 1 nM, added 15 min prior to 5-HT (10^−11 to 10^−6 M), 5-HT alone = 100%
[2] = molecular target: h5-HT2BR (Homo sapiens, UniProt P41595); assay: 5-HT-evoked Cai2+ release in h5-HT2BR-CHO cells; conditions: compound 1 nM, added 15 min prior to 5-HT (10^−11 to 10^−6 M), 5-HT alone = 100%

SMILES	Emax RFU (% 5-HT) [1] [% 5-HT]	Emax RFU (% 5-HT) [2] [p = 0.7675 % 5-HT]
CCCCCCCC/C=C\CCCCCCCC(=O)N[C@@H](Cc1c[nH]c2ccccc12)C(=O)OC [Compound 19, Methyl oleoyl-L-tryptophanate]	109.2 ± 3.5	
CCCCCCCC/C=C\CCCCCCCC(=O)NC(CO)CO [Compound 11, N-(1,3-Dihydroxypropan-2-yl)oleamide]		97.17 ± 9.2
